In the experiment the test system is primary CD138+ MM cells. Kind of experiment: EMMA ex vivo platform, live cell imaging, 96 hours, collagen matrix with bone marrow stroma and patient plasma. More on the design: scale not given here. It is filed as cell-based. The note with it: Pt885, NDMM. An excerpt:
For clinical robustness, we tested the activity of MA9 in MM patient samples using our ex vivo mathematical myeloma advisor (EMMA) platform (Supplementary Table 1). […]
For these assays, we used a novel EMMA platform developed at Moffitt. Further details are included in the supplemental Materials. […]
400 Ex vivo drug sensitivity characterization
401 An ex vivo assay was used to quantify the chemosensitivity of primary MM cells. Fresh BM
402 aspirate cells were enriched for CD138+ expression using Miltenyi (Bergisch Gladbach, Germany)
MM cells (CD138+) were seeded in Corning
404 Cell BIND 384 well plates (Corning, NY) with collagen I and previously established human-
407 inactivated), penicillin/streptomycin, and patient-derived plasma (10%, freshly obtained from
409 added using a robotic plate handler so that every drug/combination was tested at 5 (fixed
410 concentration ratio, for combinations) concentrations (1:3 serial dilution) in two replicates.
411 Negative controls (supplemented growth media with and without the vehicle control dimethyl
412 sulfoxide [DMSO]) were included, as well as positive controls for each drug (cell line MM1.S at
413 highest drug concentration). Plates were placed in a motorized stage microscope (EVOS Auto FL,
414 Life Technologies, Carlsbad, CA) equipped with an incubator and maintained at 5% CO2 and 37
415 °C. […]
Digital image analysis computes the percent […]

As for `CC(C)C[C@H](NC(=O)[C@H](Cc1ccccc1)NC(=O)c1cnccn1)B(O)O` [BTZ, bortezomib], the AUC is listed as 54.295.

These data come from PMC12363935, “Unc-51 Like Kinase 3 (ULK3) is essential for autophagy and cell survival in multiple myeloma” (Research Square, 2025).
